From PMC3745399, “An NO Donor Approach to Neuroprotective and Procognitive Estrogen Therapy Overcomes Loss of NO Synthase Function and Potentially Thrombotic Risk” (PLoS ONE, 2013)

By UniProt entry, the sequences of proteins in these tests, tags left out.
UniProt Q92731, whole entry: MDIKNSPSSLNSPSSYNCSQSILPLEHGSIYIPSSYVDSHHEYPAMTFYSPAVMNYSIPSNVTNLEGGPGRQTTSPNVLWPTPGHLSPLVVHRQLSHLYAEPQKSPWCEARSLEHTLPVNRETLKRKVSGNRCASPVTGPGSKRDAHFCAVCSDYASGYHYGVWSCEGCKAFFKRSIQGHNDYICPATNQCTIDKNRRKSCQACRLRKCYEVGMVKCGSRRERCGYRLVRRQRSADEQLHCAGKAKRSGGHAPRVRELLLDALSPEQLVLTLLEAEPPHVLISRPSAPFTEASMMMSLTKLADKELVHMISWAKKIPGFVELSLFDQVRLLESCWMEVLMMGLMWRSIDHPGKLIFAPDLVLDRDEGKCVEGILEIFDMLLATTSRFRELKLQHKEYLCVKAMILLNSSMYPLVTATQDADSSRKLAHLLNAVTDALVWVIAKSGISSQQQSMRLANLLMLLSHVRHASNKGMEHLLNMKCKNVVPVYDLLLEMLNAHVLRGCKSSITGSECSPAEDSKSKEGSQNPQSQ

Legend:
[1] = system: Ishikawa endometrial cancer cell line; test: ER-mediated transcriptional activity (antiestrogen) in Ishikawa cells; format: cell-based; conditions: read-out: antiestrogen potency IC50, ER-mediated transcriptional activity
[2] = system: C57Bl/6 mice or eNOS(−/−) mice; test: Step-through passive avoidance (STPA) memory model; conditions: C57Bl/6 male mice; scopolamine 1 mg/kg i.p.; SERM 2 mg/kg; tested 24 h after training
[3] = system: primary cortical neurons exposed to OGD; test: Neuroprotection in oxygen glucose deprivation (OGD), MTT; conditions: 100 nM; 2 h OGD; 24 h; no blocker; normalized to E2 10 nM (100%) and vehicle (0%)
[4] = target: ERβ (Homo sapiens, UniProt Q92731); test: ER binding affinity by competitive E2 displacement (ERβ); conditions: read-out: IC50 for ERβ
[5] = system: isolated rings of aortae; test: Aortic ring relaxation

Which results are given for `Oc1ccc2c(Oc3ccc(OCCN4CCCCC4)cc3)c(-c3ccc(F)cc3)sc2c1`?
IC50 [1]: 0.0014 µM; reversal of scopolamine-induced memory deficit (STPA latency) [2]: without effect; neuroprotection (cell survival by MTT) [3]: ineffectiveness; IC50 [4]: 0.016 µM; maximal relaxation response, comparison ([5]; intact aortic rings): significantly less than those for DMA and raloxifene; EC50 ([5]; read-out: EC50 for relaxation, intact aortic rings contracted with phenylepinephrine, mean, S.D.): 2.4 µM
